According to patent US11060715B2, “Ex vivo proliferation of epithelial cells” (PROPAGENIX INC., priority 2015, dated 2021):

Columns and labels:
Assay type in all cases: cell-based, human
[1] = system: neonatal foreskin keratinocytes, bronchial epithelial cells from a healthy donor and from a cystic fibrosis donor; assay: Extended expansion in KSFM with A 83-01, EGF, isoproterenol, rHA and BMS-453; details: 100 μg/mL rHA with 1 μM A 83-01, 0.5 ng/ml EGF, 3 μM isoproterenol, 50 nM BMS-453
Protocol: In another experiment, neonatal foreskin keratinocytes, bronchial epithelial cells from a healthy donor, and bronchial epithelial cells from a cystic fibrosis donor were each cultured and passaged in KSFM supplemented with 1 μM A 83-01, 0.5 ng/ml EGF, 3 μM isoproterenol, 100 μg/mL rHA, and 50 nM BMS-453. Population doublings of the cell cultures were calculated.

[2] = system: keratinocytes and airway epithelial cells; assay: Growth with rHA or BPE in KSFM with A 83-01, Y-27632 or blebbistatin, isoproterenol and EGF
Protocol: Keratinocytes and airway epithelial cells were cultured in KSFM supplemented with 1 μM A 83-01, 5 μM Y-27632, 3 μM isoproterenol, and 0.5 ng/mL epidermal growth factor (EGF) on collagen-coated culture vessels. Different concentrations of recombinant human serum albumin (rHA, expressed in rice and having the amino acid sequence of SEQ ID NO:1 or SEQ ID NO:2) or bovine pituitary extract (BPE) were tested for their growth promotion effects.
In another experiment, keratinocytes and airway epithelial cells were cultured for more than five consecutive passages under various conditions, and population doublings of the cell cultures were calculated. The conditions included 1) A+Y (BPE): KSFM supplemented with 1 μM A 83-01, 5 μM Y-27632, 3 μM isoproterenol, 0.5 ng/mL EGF and 30 μg/mL BPE; 2) A+Y (rHA): KSFM supplemented with 1 μM A 83-01, 5 μM Y-27632, 3 μM isoproterenol, 0.5 ng/mL EGF and 100 μg/mL rHA (expressed in rice); and 3) A+B (rHA): KSFM supplemented with 1 μM A 83-01, 2 μM blebbistatin, 3 μM isoproterenol, 0.5 ng/mL EGF and 100 μg/mL rHA (expressed in rice).

[3] = system: keratinocytes; assay: Expansion of keratinocytes in KSFM supplemented with combinations of components; details: 100 μg/mL, in the presence of A83-01, EGF and isoproterenol
Protocol: In another experiment, keratinocytes were cultured in KSFM supplemented with various combinations of components. The components included epidermal growth factor (EGF), used at 0.5 ng/mL; bovine pituitary extract (BPE), used at 30 μg/mL; recombinant human serum albumin (rHA) expressed in rice, used at 100 μg/mL; isoproterenol (ISO), used at 3 μM; ALK5 inhibitor (A 83-01), used at 1 μM; ROCK inhibitor (Y-27632), used at 5 μM; Myosin II ATPase inhibitor (blebbistatin) used at 2 μM; antagonist for retinoic acid receptor (RAR), BMS-453, used at 100 nM. […] Moreover, this effect was independent of a ROCK inhibitor (Y-27632) or a Myosin II ATPase inhibitor (blebbistatin).
In another experiment, keratinocytes were cultured in the presence of increasing doses of ROCK inhibitor (Y-27632) or Myosin II ATPase inhibitor (blebbistatin), in KSFM supplemented with EGF (0.5 ng/mL), isoproterenol (3 μM), A 83-01 (1 μM), and recombinant human serum albumin (expressed in rice; 100 μg/mL).
In another experiment, keratinocytes were cultured in the presence of increasing doses (between 10 nM to 2 μM) of retinoic acid receptors (RAR) antagonist BMS-453 or retinoic acid receptors (RAR) antagonist BMS-195614, in KSFM supplemented with EGF (0.5 ng/mL), isoproterenol (3 μM), A 83-01 (1 μM), and recombinant human serum albumin (expressed in rice; 100 μg/mL).

## rHA: recombinant human serum albumin expressed in rice (Sigma, A9731), SEQ ID NO:1 or SEQ ID NO:2
[1]
  extended expansion (population doublings): supports extended expansion of epithelial cells
[2]; 100 μg/mL rHA versus 30 μg/mL BPE, more than five consecutive passages
  extended expansion (population doublings): supports extended expansion of epithelial cells to similar levels as bovine pituitary extract (BPE)
[2]; KSFM with 1 μM A 83-01, 5 μM Y-27632, 3 μM isoproterenol, 0.5 ng/mL EGF, collagen-coated vessels
  growth promotion (support of epithelial cell culture): can be used in place of bovine pituitary extract (BPE)
[3]
  extended expansion: supports extended expansion of epithelial cells to similar levels as bovine pituitary extract (BPE)
